Assay results: publication PMC3794980, “Identification of Conserved and HLA Promiscuous DENV3 T-Cell Epitopes” (PLoS Neglected Tropical Diseases, 2013)
Marks after values point to notes of the source that are not given here.

Sequences of proteins named here, by UniProt entry; tags and fusion partners are left off. Residues count along the entry.
UniProt P01903, 26-254: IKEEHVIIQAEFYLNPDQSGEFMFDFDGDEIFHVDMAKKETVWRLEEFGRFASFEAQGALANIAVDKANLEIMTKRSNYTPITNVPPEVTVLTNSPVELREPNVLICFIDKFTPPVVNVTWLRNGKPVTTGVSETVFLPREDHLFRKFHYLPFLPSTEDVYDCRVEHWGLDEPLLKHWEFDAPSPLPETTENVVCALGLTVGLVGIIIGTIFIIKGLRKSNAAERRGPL
UniProt P01911, 30-266: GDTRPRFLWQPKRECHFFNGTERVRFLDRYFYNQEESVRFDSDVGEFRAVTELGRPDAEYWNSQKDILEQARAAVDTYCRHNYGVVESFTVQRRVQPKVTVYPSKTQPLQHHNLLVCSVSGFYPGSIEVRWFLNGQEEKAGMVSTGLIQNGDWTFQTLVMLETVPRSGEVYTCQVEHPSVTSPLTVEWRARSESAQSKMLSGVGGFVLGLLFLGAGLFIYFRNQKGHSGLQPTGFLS

How the values were obtained:
[1] = test system: HLA-DR4 (HLA-DRA1*0101; -DRB1*0401) transgenic mice; conditions: for Transgenic mice DR4 (ELISPOT): representative IFN-γ ELISPOT data, CD8-depleted splenocytes of HLA-DR4 TgM
[2] = test system: HLA transgenic mice (A02, A24, B07, DR2, DR3 and DR4); experiment: Immunogenicity screen in six HLA transgenic mice strains (summary); type: in vivo; conditions: IFN-γ ELISPOT in six TgM strains; Negative = none
DRB1*1501 = DRB1*1501 (Homo sapiens, UniProt P01903+P01911); experiment: biochemical; type: binding
[3] = test system: HLA of the TgM (A02, A24, B07, DR2, DR3, DR4); experiment: HLA binding assays, summary of HLA affinity confirmed; parameters: species or system human; conditions: ND: non-determined

Sequence | Transgenic mice DR4 (ELISPOT) [1] | TGM (HLA transgenic mice in which the peptide was immunogenic) [2] | specificity for DR2 molecule by binding assay (DRB1*1501) | Binding assay (HLA to which affinity was found) [3] | Transgenic mice DR4/IE ([1]; IFN-γ ELISPOT of splenocytes, HLA-DR4/IE transgenic mice, printed as value+spread, '-' = no value, distinct from ND)
KIPGGAMYADDTAGWDT [NS5_523–539] | 44+15 SFC per 1 million cells |  |  |  | 
NEWITDFAGKTVWFV [NS3_349–363, DENV3 NS3 15-mer overlapping library peptide] |  | DR2 | confirmed | DR2 | 
NSYSGVEGEGLHKLGYI [NS5_501–517] | 50+10 SFC per 1 million cells |  |  |  | 
PEVVVLGSQEGAMHT [Envelope 246-260] |  |  |  |  | 25+0
PWDVVPMVTQMAMTDTT [NS5_330–346, DENV3 NS5 17-mer overlapping library peptide] |  | DR4 |  | DR4 | 
SPIINREGKVVGLYG [NS3_137–151, DENV3 NS3 15-mer overlapping library peptide] |  | DR3 |  | DR2,DR3 | 
TDFAGKTVWFVPSIK [NS3_353–367, DENV3 NS3 15-mer overlapping library peptide] |  | DR2* |  | Negative | 
WNSGNEWITDFAGKT [NS3_345–359, DENV3 NS3 15-mer overlapping library peptide] |  | DR2* |  | Negative | 
